How the values were obtained:
[1] = molecular target: full-length HAQ STING (Homo sapiens, UniProt Q86WV6, G230A/H232R/R293Q/R71H); assay: 3H-cGAMP filtration binding assay (HAQ STING); details: read-out: EC50 (nM), 3H-cGAMP filtration binding assay for HAQ STING; competition with tritiated cGAMP ligand; T. ni cell membranes overexpressing full-length HAQ STING; tested form: triethylammonium salt
[2] = molecular target: full-length WT STING (Homo sapiens, UniProt Q86WV6, H232R); assay: 3H-cGAMP filtration binding assay (WT STING); details: read-out: EC50 (nM), 3H-cGAMP filtration binding assay for WT STING; competition with tritiated cGAMP ligand; T. ni cell membranes overexpressing full-length WT STING; tested form: triethylammonium salt
[3] = test system: IFN-β secretion from THP1 cells; assay: IFN-β secretion in THP1 cell culture (5 h); details: 5 h incubation, compound at 30 μM, 30 uM cGAMP = 100%, tested form: triethylammonium salt

Amino acid sequences for entries named in this document (tags omitted). Chains listed by the source or under a name are the forms on record and can include a tag or linker. Residues count along the entry.
UniProt Q86WV6, 1-379 with tags or gaps H232R: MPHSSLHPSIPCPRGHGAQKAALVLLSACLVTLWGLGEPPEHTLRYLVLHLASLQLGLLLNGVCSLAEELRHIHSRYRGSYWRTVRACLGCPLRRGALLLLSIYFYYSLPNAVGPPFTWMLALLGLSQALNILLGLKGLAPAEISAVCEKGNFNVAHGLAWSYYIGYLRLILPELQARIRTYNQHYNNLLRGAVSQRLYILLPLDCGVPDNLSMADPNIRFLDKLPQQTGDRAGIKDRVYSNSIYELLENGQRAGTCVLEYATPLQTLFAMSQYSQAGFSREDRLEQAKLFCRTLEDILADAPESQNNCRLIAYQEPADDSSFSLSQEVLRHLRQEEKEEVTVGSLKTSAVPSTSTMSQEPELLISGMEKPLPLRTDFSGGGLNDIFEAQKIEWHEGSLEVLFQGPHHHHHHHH
UniProt Q86WV6, 1-379 with tags or gaps G230A/H232R/R293Q/R71H: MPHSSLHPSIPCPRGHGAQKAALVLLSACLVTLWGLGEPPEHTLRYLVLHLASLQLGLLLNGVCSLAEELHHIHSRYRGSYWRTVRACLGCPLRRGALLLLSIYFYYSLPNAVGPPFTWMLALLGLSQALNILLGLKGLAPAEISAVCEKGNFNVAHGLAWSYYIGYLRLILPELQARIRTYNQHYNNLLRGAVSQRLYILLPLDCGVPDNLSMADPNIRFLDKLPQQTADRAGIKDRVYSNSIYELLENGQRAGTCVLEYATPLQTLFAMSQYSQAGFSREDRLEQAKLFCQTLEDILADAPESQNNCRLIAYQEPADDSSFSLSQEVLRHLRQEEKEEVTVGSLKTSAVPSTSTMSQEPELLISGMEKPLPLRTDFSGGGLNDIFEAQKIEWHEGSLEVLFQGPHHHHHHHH

EC50 [1]: 14 nM
EC50 [2]: 21 nM
Compound: Nc1nc2c(ncn2[C@@H]2O[C@@H]3COP(=O)(S)O[C@H]4C[C@H](n5cc(F)c6c(=O)[nH]cnc65)O[C@@H]4COP(=O)(S)O[C@@H]2[C@@H]3F)c(=O)[nH]1 (single isomer, unassigned)
% Effect at 30 μM relative to 2′3′-cGAMP [3]: 53%

From patent publication US11685761B2, “Cyclic di-nucleotide compounds as sting agonists” (Merck Sharp & Dohme Corp., priority 2017, dated 2023)
